Experimental data: PubChem BioAssay AID2717 (Broad Institute, 2010)
Only a part is listed here, and it is no random draw. The source made the active and inactive calls. Cut-off read from the data, not from the text of the source: active = inhibition above about 75%; inconclusive = no clear call, values can overlap the other calls; inactive = below that; tested in HMLE shEcad cells.

Assay: cancer stem cell viability inhibitors, primary screen, luminescence (AID 2717)
Settings: cancer stem cell-like cells viability, at 7.5 µM, hits give high values
With O=P(Nc1nc2ccccc2s1)(c1ccccc1)c1ccccc1 the inhibition was inactive: 6.02%. In the case of C[C@H]1OP(=O)(Oc2ccccc2)[C@H](O)[C@H](O)[C@H]1N=[N+]=[N-] (some centres not stated), the inhibition is reported as inactive: -8.94%. In the case of O=[As](O)(c1ccccc1)c1ccc(O)cc1, the inhibition is reported as inactive: -7.17%. In the case of O=[N+]([O-])c1cc([N+](=O)[O-])c(NCC2CCS(=O)(=O)C2)c([N+](=O)[O-])c1 (configuration not stated), the inhibition is reported as inactive: 24.8%. For CC(=O)NC(SC(=S)N(C)C)C(Cl)(Cl)Cl (configuration not stated), the inhibition was inactive: -11.2%. For O=[N+]([O-])c1ccc(OP2(=O)COCCO2)cc1 (configuration not stated), the inhibition was inactive: -4.01%. For O=[N+]([O-])c1ncn(CCn2cnc([N+](=O)[O-])n2)n1, the inhibition was inactive: 0.771%. For O=C(OC1CN2CCC1CC2)c1cccc(Cl)c1 (configuration not stated), the inhibition was inactive: -13%. In the case of C(Cc1nn[nH]n1)Cc1nn[nH]n1, the inhibition is reported as inactive: 6.73%. With Nc1ccc([As](=O)(O)c2ccc([N+](=O)[O-])cc2)cc1 the inhibition was inactive: -19.2%. In the case of Cc1nn(-c2ccccc2)c2c1P(=O)(N1CCOCC1)N(C)C(c1ccccc1)=N2 (configuration not stated), the inhibition is reported as inactive: -0.852%. In the case of CC1CCC(C(C)C)C(OP(=O)(Nc2ccccn2)c2ccccc2)C1 (configuration not stated), the inhibition is reported as inactive: 3.54%. For Cc1ccc(C(=O)OC2CN3CCC2CC3)cc1 (configuration not stated), the inhibition was inactive: -7.36%. For COc1cc(C2NCCC3(OCCO3)C2(C)C)cc(OC)c1OC.O=[N+]([O-])c1cc([N+](=O)[O-])c(O)c([N+](=O)[O-])c1 (configuration not stated), the inhibition was inactive: -5.16%. In the case of CN(C)C1(CNC(=O)c2ccc(S(C)(=O)=O)cc2)CCCCC1, the inhibition is reported as inactive: -15%. For CC1=C2N=C(C=C3N=C(C(C)=C4[N-][C@@](C)([C@@H]5N=C1[C@](C)(CCC(=O)NC[C@@H](C)OP(=O)([O-])O[C@H]1[C@@H](O)[C@@H](n6cnc7cc(C)c(C)cc76)O[C@@H]1CO)[C@H]5CC(N)=O)[C@@](C)(CC(N)=O)[C@@H]4CCC(N)=O)[C@@](C)(CC(N)=O)[C@@H]3CCC(N)=O)C(C)(C)[C@@H]2CCC(N)=O.[C-]#N.[Co+3], the inhibition was inactive: 6.05%. With O=[N+]([O-])c1cc([N+](=O)[O-])c(Nc2nnnn2CCO)c([N+](=O)[O-])c1 the inhibition was inactive: -10.9%. For CCOC(=O)C(CC)C1=NC(C)(C)Cc2ccccc21.O=[N+]([O-])c1cc([N+](=O)[O-])c(O)c([N+](=O)[O-])c1 (configuration not stated), the inhibition was inactive: -15.2%. With O=C(/C=C/c1ccccc1)OC1CN2CCC1CC2 (configuration not stated) the inhibition was inactive: 41.5%. In the case of CN1CCCCC1COC(=O)C1(O)c2ccccc2CCc2ccccc21 (configuration not stated), the inhibition is reported as inactive: 3.27%. With O=P1(Nc2ncccn2)COc2ccccc2OC1 the inhibition was inactive: -10.8%. In the case of CCCOc1ccc(NP(C)(=O)Oc2ccc(Cl)cc2)cc1 (configuration not stated), the inhibition is reported as inactive: -18.1%. With CP(=O)(Nc1ccc(SC(F)(F)F)cc1)Oc1ccccc1 (configuration not stated) the inhibition was inactive: 4.8%. For Nc1cccc([As](=O)(O)c2ccccc2)c1, the inhibition was inactive: -3.67%. For Cc1ccc(OCC(=O)OC2CN3CCC2CC3)cc1 (configuration not stated), the inhibition was inactive: 2.43%. With O=[As](O)(c1cccs1)c1cccs1 the inhibition was inactive: 9.29%. With O=P1(Nc2ccc(Br)cn2)COc2ccccc2OC1 the inhibition was inactive: -6.83%. With NS(=O)(=O)c1cccc(NC(=O)COC(=O)C(O)(c2ccccc2)c2ccccc2)c1 the inhibition was inactive: -12.6%. In the case of O=P1(Nc2ccccn2)COc2ccccc2OC1, the inhibition is reported as inactive: -12.5%. For CCC1=CC2Cc3nc4ccc(Cl)cc4c(N)c3C(C1)C2 (configuration not stated), the inhibition was inactive: 1.58%. With O=[N+]([O-])c1cc([N+](=O)[O-])c(-n2nnc3ccccc32)c([N+](=O)[O-])c1 the inhibition was inactive: -3.83%. In the case of CCOP(=O)(NC(=NC(C)c1ccccc1)NC(C)c1ccccc1)OCC (configuration not stated), the inhibition is reported as inactive: -14.2%. In the case of CCOP(=O)(Nc1ccc(C)cn1)OCC, the inhibition is reported as inactive: -9%. For CN(CCCl)Cc1cc(Cl)c(NC2=NCCN2)c(Cl)c1, the inhibition was inactive: 4.64%. With Clc1n[nH]nc1-c1nn[nH][15n]1 the inhibition was inactive: -6.51%. With CC(C)(C)C(=O)NC(Sc1ncccn1)C(Cl)(Cl)Cl (configuration not stated) the inhibition was inactive: -5.37%. With O=[N+]([O-])c1cc([N+](=O)[O-])c(-c2cnn(-c3ccccc3)c2)c([N+](=O)[O-])c1 the inhibition was inactive: 11.6%. In the case of COc1ccccc1CNC(=O)COC(=O)C(O)(c1ccccc1)c1ccccc1, the inhibition is reported as inactive: -12.3%. With CC(C)/C=N\N=C(\N)N[N+](=O)[O-] the inhibition was inactive: -8.69%. For CN(C(=O)Cc1ccc(Cl)c(Cl)c1)[C@@H]1CCCC[C@H]1N1CCCC1, the inhibition was inactive: -12.4%. In the case of O=[As](O)(c1ccccc1Br)c1ccccc1Br, the inhibition is reported as inactive: -3.27%. In the case of CC1(CBr)Cn2c(nc3ccccc3c2=O)S1 (configuration not stated), the inhibition is reported as inactive: -2.25%. For Cc1nc2ccc3ccccc3c2s1.O=[N+]([O-])c1cc([N+](=O)[O-])c(O)c([N+](=O)[O-])c1, the inhibition was inactive: 3.83%. For O=C(OC1CN2CCC1CC2)c1ccc(Cl)cc1 (configuration not stated), the inhibition was inactive: -8.14%. For O=[As](O)(O)c1cccnc1, the inhibition was inactive: 6.4%. In the case of COc1cc(C(=O)NCC2(N3CCOCC3)CCCCC2)cc(Cl)c1OC(C)C, the inhibition is reported as inactive: 53.6%. For COc1ccccc1OP(C)(=O)Nc1cccc(Br)c1 (configuration not stated), the inhibition was inactive: -0.844%. In the case of CS(=O)(=O)c1ccc(Cl)c(NC(=O)COC(=O)C(O)(c2ccccc2)c2ccccc2)c1, the inhibition is reported as inactive: -3.83%. For Cc1cccc(OCC(=O)OC2CN3CCC2CC3)c1 (configuration not stated), the inhibition was inactive: 1%. For O=[As](O)(c1cccc(O)c1)c1cccc(O)c1, the inhibition was inactive: -5.85%. For Cc1cc(C)cc(OP(C)(=O)Nc2ccc(C)cc2C)c1 (configuration not stated), the inhibition was inactive: -10.1%. In the case of CCOC(=O)c1ccc(NP(C)(=O)Oc2cc(C)cc(C)c2)cc1 (configuration not stated), the inhibition is reported as inactive: 24.7%. In the case of Cc1cc(C)cc(OP(C)(=O)Nc2ccccn2)c1 (configuration not stated), the inhibition is reported as inactive: -2.33%. For CP(=O)(Nc1cccc(Br)c1)Oc1ccccc1 (configuration not stated), the inhibition was inactive: -0.972%. With Cc1ccc(NCCc2c([N+](=O)[O-])cc([N+](=O)[O-])cc2[N+](=O)[O-])cc1 the inhibition was inactive: 28%. In the case of Nc1cccc2c([As](=O)(O)O)cccc12, the inhibition is reported as inactive: -0.495%. In the case of Cc1ccc(C)c(NP(C)(=O)Oc2ccccc2)c1 (configuration not stated), the inhibition is reported as inactive: -11.5%. With CCCOP(=S)(Nc1nc(N)cc(=O)[nH]1)OCCC the inhibition was inactive: -7.32%. In the case of CCOP(=O)(Nc1cccc2ccccc12)OCC, the inhibition is reported as inactive: -1.14%. For CCOP1(=S)c2c(C)nn(CCC#N)c2N=C(c2ccccc2F)N1C (configuration not stated), the inhibition was inactive: -5.58%. In the case of O=C(O)c1cccc(Nc2c([N+](=O)[O-])cc([N+](=O)[O-])cc2[N+](=O)[O-])c1, the inhibition is reported as inactive: 2.72%. For O=P(Nc1nccs1)(Oc1ccccc1)Oc1ccccc1, the inhibition was inactive: 8.93%. In the case of O=P(Nc1nccs1)(c1ccccc1)c1nc2ccccc2s1 (configuration not stated), the inhibition is reported as inactive: -0.91%. In the case of CS(=O)(=O)c1cc([N+](=O)[O-])c2no[n+]([O-])c2c1, the inhibition is reported as inactive: -26.9%. For Nc1ccccc1[As](=O)(O)c1ccccc1, the inhibition was inactive: -4.7%. With O=C(O)COc1ccc([As](=O)(O)O)cc1[N+](=O)[O-] the inhibition was inactive: -1.37%. In the case of NC(=O)Nc1ccc([As](=O)(O)O)cc1, the inhibition is reported as inactive: 2.51%. For N#CCCN(C(=O)COC(=O)C(O)(c1ccccc1)c1ccccc1)c1ccc(F)cc1, the inhibition was inactive: -22.1%. For CN(C(=O)Cc1ccccc1)[C@@H]1CC[C@]2(CCCO2)C[C@H]1N1CCCC1, the inhibition was inactive: -5.16%. In the case of CCOP1(=S)c2c(C)nn(CCC#N)c2N=C(c2ccc(F)cc2)N1C (configuration not stated), the inhibition is reported as inactive: -5.89%. In the case of O=[N+]([O-])c1ccc2c(c1)nnn2O, the inhibition is reported as inactive: -17.3%. With CN(C)C(=O)c1cc([N+](=O)[O-])cc2c1-c1c(cc([N+](=O)[O-])cc1[N+](=O)[O-])C2=O the inhibition was inactive: 64.6%. For CC1=NCCc2c1[nH]c1ccccc21.O=[N+]([O-])c1cc([N+](=O)[O-])c(O)c([N+](=O)[O-])c1, the inhibition was inactive: -3.32%. In the case of CN(C(=O)Cc1ccc(Cl)c(Cl)c1)[C@H]1CC[C@@]2(CCCO2)C[C@@H]1N1CCCC1, the inhibition is reported as inactive: -16.7%. With O=[N+]([O-])c1cc([N+](=O)[O-])c(Nc2cccnc2)c([N+](=O)[O-])c1 the inhibition was inactive: 2.58%. With C[As](=O)(O)c1cccc(C(=O)O)c1 the inhibition was inactive: -4.51%. With O=[As](O)(c1ccc(O)cc1)c1ccccc1O the inhibition was inactive: -13.6%. In the case of COc1cc(C(=O)NCC2(N3CCOCC3)CCCCC2)ccc1OCC(C)C, the inhibition is reported as inactive: 40.6%. For Cc1ccc(OP(=O)(Nc2ccc([N+](=O)[O-])cn2)Oc2ccc(C)cc2)cc1, the inhibition was inactive: -5.48%. In the case of CC(C)(C)c1ccc(OP(C)(=O)Nc2ccc(SC(F)(F)F)cc2)cc1 (configuration not stated), the inhibition is reported as inactive: -14.8%. With Cc1cccc(C)c1OP(C)(N)=O (configuration not stated) the inhibition was inactive: -11.7%. With O=[N+]([O-])c1ccc2c(c1)C=Nc1ccccc1O2 the inhibition was inactive: 47.9%. In the case of Cc1ccc2nc3c(c(C)c2c1)CC(C(Cl)Cl)S3 (configuration not stated), the inhibition is reported as inactive: 22.3%. In the case of CCOC(=O)c1ccc(NP(C)(=O)Oc2ccccc2)cc1 (configuration not stated), the inhibition is reported as inactive: -4.82%. For ClCCSc1nnc(-c2cccnc2)o1, the inhibition was inactive: 12.1%. With COc1ccccc1OP(C)(=O)Nc1ccc(C)cc1 (configuration not stated) the inhibition was inactive: -4.89%. In the case of Cc1ccc(NP(C)(=O)Oc2ccccc2)c(C)c1 (configuration not stated), the inhibition is reported as inactive: -0.222%. With CC(C)c1ccc(OP(=O)(Nc2ccccn2)Oc2ccccc2F)cc1 (configuration not stated) the inhibition was inactive: 8.71%. In the case of COc1ccccc1OP(C)(=O)Nc1cc(Cl)ccc1C (configuration not stated), the inhibition is reported as inactive: -10.8%. In the case of CC(C)NC(=O)NP(=O)(Oc1ccccc1)Oc1ccccc1, the inhibition is reported as inactive: 3.4%. With CCN(CC)C(=S)SC(NC=O)C(Cl)(Cl)Cl (configuration not stated) the inhibition was inactive: -3.22%. In the case of COc1ccc(OP(C)(=O)Nc2cccc(F)c2)cc1 (configuration not stated), the inhibition is reported as inactive: -1.7%.
